Assay results published in patent US20130071340A1, “POLYOL PARTIAL ESTERS FOR USE IN COSMETICS” (priority 2010, published 2013).

Experiments:
[1] = Penetration tests of cosmetic active substances from a standard emulsion, prepared pig skin in modified Franz diffusion cells (OECD TG 428); assay type: in vitro ADME; conditions: Franz cell, 24 h, 32 °C, mean of six
[2] = UV filter solubility in the emollients; assay type: physicochemical; conditions: for UV filter solubility: Benzophenone-3: maximum soluble amount of benzophenone-3 (Uvinul M 40) in the emollient at 22 °C
Excerpt: This operation was repeated until the maximum soluble amount of the UV filter was exceeded. At higher concentrations, often a longer stirring time of several hours is necessary for complete dissolution. When in this way the maximum concentration had been determined approximately, for fine determination the concentration range was repeated around this maximum concentration with smaller initial weighed amounts of the UV filter.

## Caprylic/capric triglyceride
[1]; phytosphingosine salicylate 0.5 wt % in standard emulsion with 15 wt % emollient
  Active substance in the receptor %: 0%
[1]; retinol 0.5 wt % in standard emulsion with 15 wt % emollient
  Active substance in the receptor %: 0%
[1]; tocopherol 0.5 wt % in standard emulsion with 15 wt % emollient
  Active substance in the receptor %: 0%

## C12-15 alkyl benzoate
[2]
  UV filter solubility: Benzophenone-3: 12.0%
[2]; maximum soluble amount of ethylhexyl triazone (Uvinul T 150) in the emollient at 22 °C
  UV filter solubility: Ethylhexyl triazone: 8.0%

## PPG-15 stearyl ether
[2]
  UV filter solubility: Benzophenone-3: 9.0%
